Patent US20060188964A1, “Processing for producing and crystallizing G-protein coupled receptors” (priority 2004, published 2006)
pKd: −log10 of the molar value.

Biological target: T1, MBP-serotonin receptor fusion protein (MBP-5HT2c) (Rattus norvegicus, UniProt P08909)
T1 construct: possibly thioredoxin (TRX) fused at residue 402 and/or a C-terminal deca-histidine tag
T1 sequence (P08909 57-402 limits assumed): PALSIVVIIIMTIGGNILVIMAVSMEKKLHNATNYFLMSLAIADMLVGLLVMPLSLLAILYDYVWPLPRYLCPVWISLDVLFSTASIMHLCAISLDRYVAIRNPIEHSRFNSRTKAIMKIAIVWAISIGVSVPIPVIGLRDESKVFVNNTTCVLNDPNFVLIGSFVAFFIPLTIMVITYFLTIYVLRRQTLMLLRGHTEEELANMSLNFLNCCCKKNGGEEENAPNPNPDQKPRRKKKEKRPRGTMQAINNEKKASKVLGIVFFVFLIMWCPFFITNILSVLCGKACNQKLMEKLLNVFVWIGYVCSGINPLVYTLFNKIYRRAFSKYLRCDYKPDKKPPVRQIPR
Assay: Tritiated mesulergine saturation binding and Scatchard analysis on E. coli spheroplasts
Details: background with 10 μM serotonin, triplicate
Experimental: Once conditions were established for expression at a high level, the specific activity of the expressed protein was fully analyzed on an absolute scale, as for material from mammalian cells. In this case, experiments were carried out on spheroplasts (bacterial cells stripped of their outer membranes) using tritiated mesulergine (FIGS. 20A and 20B). FIGS. 20A and 20B correspond to data obtained from ligand binding to bacterial spheroplasts isolated from E. coli cells expressing the MBP-serotonin receptor fusion protein. […] The specific activity was calculated as the difference between the total activity and the activity assayed in the presence of 10 μM serotonin. Assays were performed in triplicate and what is shown is the average of these measurements.

`CN1C[C@@H](NS(=O)(=O)N(C)C)C[C@@H]2c3cccc4c3c(cn4C)C[C@H]21` [mesulergine] was tested, and the pKd was ~8.66.
